The source of these data is EP0359745B1, “GROWTH FACTOR RECEPTOR” (IMPERIAL CANCER RESEARCH TECHNOLOGY LIMITED, priority 1987, dated 1988).

Amino acid sequences for entries named in this document (tags omitted). A change or cut given only in a name is not applied to a line headed by its entry.
UniProt P21729: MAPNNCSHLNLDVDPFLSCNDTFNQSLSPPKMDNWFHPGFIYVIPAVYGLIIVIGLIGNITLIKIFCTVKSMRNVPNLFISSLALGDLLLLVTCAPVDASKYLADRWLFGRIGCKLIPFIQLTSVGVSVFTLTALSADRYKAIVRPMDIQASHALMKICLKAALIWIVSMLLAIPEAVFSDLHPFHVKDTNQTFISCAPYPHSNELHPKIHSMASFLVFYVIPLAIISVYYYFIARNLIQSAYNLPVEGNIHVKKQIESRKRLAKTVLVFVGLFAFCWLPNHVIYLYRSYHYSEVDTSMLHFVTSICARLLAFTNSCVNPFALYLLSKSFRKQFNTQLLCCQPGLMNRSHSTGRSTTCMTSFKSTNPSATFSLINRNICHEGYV

The test has as its target Mr 75000-85000 protein (Mus musculus, UniProt P21729). Put plainly: ¹²⁵I-GRP affinity labelling (EGS cross-linking) of the Mr 75000-85000 protein in Swiss 3T3 cells, SDS-PAGE and scanning densitometry. In kind it is binding. Also noted: endogenous in cells; host or cells: Swiss 3T3 cells (mouse fibroblasts). Here is the method:
After 2.5 h the cells were washed three times at 15°C with phosphate buffered saline (PBS) ad then incubated for 15 min at 15°C In 1 ml of binding medium, pH 7.4 In the presence of the appropriate cross-linking agent at the concentration indicated. The cross-linking agents (EGS, DSS, DSP and BSCOES) were dissolved in dimethyl sulphoxide immediately prior to use and were added to medium to give a final concentration of dimethylsulphoxide of 1-2%. The cultures were rapidly rinsed twice with PBS at 4°C and solubilized in 0.1ml of 2 x sample buffer 0.2 M Tris-HCl, pH 6.8, 10% (w/v) glycerol, 6% sodium dodecyl sulphate (SDS) (w/v) 4% β-mercaptoethanol (v/v) and 2 mM ethylenediaminetetraacetic acid. Samples were immediately heated at 100°C for 3-5 min and analysed by either one or two-dimensional gel electrophoresis.
Slab gel electrophoresis was performed using 7.5% acrylamide in the separating gel ad 5% in the stacking gel, ad 0.1% SDS (31). […] The Mr 75000-85000 band from autoradiograms was scanned using a Joyce-Loebl double beam densitometer and the areas under specific peaks were measured with a Hewlett-Packard digitizer.
After this time some cells were washed four times with cold (4°C) PBS supplemented with 1 mg/ml BSA, solubilized and total cell associated radioactivity was then determined in a gamma counter. […] The cells were then solubilized and samples were analyzed by SDS-PAGE. […]

Consider Bombesin, for which the “cross-linking of ¹²⁵I-GRP / level of the Mr 75000-85000 protein (in words)” value (summary of Table 1, saturating concentrations of the other mitogens) is listed as “markedly inhibited”. In addition, the “Mr 75000-85000 protein % of control” value (¹²⁵I-GRP (0.5 nM), 15°C, 2.5 h, 6 mM EGS, additions: GRP 360 nM, GRP (14-27) 30 nM, bombesin 30 nM, litorin 92 nM, neuromedin B 220 nM, [D-Arg¹,D-Pro²,D-Trp^7,9,Leu¹¹] substance P 100 »M, GRP (1-16) 3230 nM, PDGF 5 nM, EGF 83 nM, vasopressin 1000 nM, insulin 1 »g/ml, phorbol 12,13 dibutyrate 2000 nM, substance P 740 nM, substance K 880 nM, somatostatin 610 nM, neurotensin 600 nM) is 0.5 % of control.
